{"source": "patent US8470814B2", "about": "“Diazepinedione derivative” (Nippon Chemiphar Co., Ltd., priority 2009, dated 2013)", "biological_target": "T1, human P2X4 receptors (Homo sapiens, UniProt Q99571)", "T1 construct": "expressed in transfected cells", "T1 sequence (Q99571 1-388)": "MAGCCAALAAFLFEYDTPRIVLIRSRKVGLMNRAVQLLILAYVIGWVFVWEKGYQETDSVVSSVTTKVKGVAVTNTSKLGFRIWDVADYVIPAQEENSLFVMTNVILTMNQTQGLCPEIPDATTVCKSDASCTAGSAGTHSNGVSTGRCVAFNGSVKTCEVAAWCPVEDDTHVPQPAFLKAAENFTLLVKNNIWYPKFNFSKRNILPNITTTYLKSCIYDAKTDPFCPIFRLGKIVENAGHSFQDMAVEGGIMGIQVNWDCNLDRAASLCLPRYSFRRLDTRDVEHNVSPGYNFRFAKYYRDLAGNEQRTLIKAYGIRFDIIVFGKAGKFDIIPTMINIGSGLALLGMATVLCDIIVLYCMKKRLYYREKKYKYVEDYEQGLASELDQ", "test": "calcium influx assay (Fura-2, ATP-induced Ca2+ response) for P2X4 receptor antagonism", "format": "cell-based", "conditions": "1321N1 cells stably expressing human P2X4 receptors; 1 μM ATP; compound treated 15 min before ATP; fluorescence ratio F340/F380", "procedure": "1321N1 cells stably expressing human P2X4 receptors were adopted for calcium influx assay. P2X4/1321N1 cells were plated in 96-well assay plate and cultured 24 hours in an atmosphere of 5% CO2 at 37° C. Fura-2 AM calcium indicator dissolved in an extracellular solution for calcium imaging was loaded onto cells for 45 minutes at room temperature. The fluorescence was detected by FLUOstar Optima micro plate reader (BMG labtech). The cells were alternatively illuminated with two excitations wavelengths (340 nm and 380 nm) via xenon lamp and the emitted fluorescence was measured at 510 nm. The fluorescence changes after the treatment of 1 μM ATP were monitored and determined the fluorescence ratio (F340/F380) as the index of intracellular calcium change. Tested compounds were treated to cells 15 min before the addition of ATP and the inhibition activities of compounds were calculated by comparing the Ca^2+ response with control in the absence of tested compound.\nP2X4 receptor antagonism of the compound of the present invention was measured as described below.\n1321N1 cells stably expressing human P2X4 receptors were adopted for calcium influx assay. […] The fluorescence was detected by FLUOstar Optima micro plate reader (BMG labtech). The cells were alternatively illuminated with two excitations wavelengths (340 nm and 380 nm) via xenon lamp and the emitted fluorescence was measured at 510 nm. […]", "note": "Where a name gives a salt, the structure may show the parent alone.", "data": [{"compound": "O=C1CC(=O)N(c2cccc(-c3nnn[nH]3)c2)c2ccc3ccccc3c2N1", "note": "[Example 2, 5-[3-(1H-Tetrazol-5-yl)phenyl]-1H-naphtho[1,2-b][1,4]diazepin-2,4(3H,5H)-dione potassium salt]", "values": [{"measurement": "IC50", "result": 380, "unit": "nM"}]}]}
